These are literature values, as cited in patent US12409112B2, “Pressurized nanoemulsion” (Biofrontera Bioscience GmbH, priority 2023, dated 2025).

For the data set the following is noted: cited from earlier work.

For betamethasone propionate [BMP], the “octanol-water partition coefficient (log P)” value is 1.14.
